Data taken from ChEMBL document CHEMBL1150369, “Conformation-opioid activity relationships of bicyclic guanidines from 3D similarity analysis” (Bioorg Med Chem, 2008).

The chains behind the UniProt entries cited, without tags or fusion partners. Where a name states a change or a piece, a line headed by the entry shows the natural chain unless it says otherwise.
UniProt P41144: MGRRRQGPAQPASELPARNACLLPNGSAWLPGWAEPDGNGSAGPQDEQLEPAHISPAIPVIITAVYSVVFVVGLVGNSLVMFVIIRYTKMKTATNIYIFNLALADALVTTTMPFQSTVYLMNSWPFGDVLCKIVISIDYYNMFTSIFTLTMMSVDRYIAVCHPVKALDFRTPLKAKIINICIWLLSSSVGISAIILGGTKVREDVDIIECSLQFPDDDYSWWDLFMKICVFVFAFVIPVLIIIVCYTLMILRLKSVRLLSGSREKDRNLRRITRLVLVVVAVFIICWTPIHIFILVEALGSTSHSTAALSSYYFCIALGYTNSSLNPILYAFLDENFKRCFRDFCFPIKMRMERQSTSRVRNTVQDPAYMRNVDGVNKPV

What follows are molecules tested against Kappa-type opioid receptor (Cavia porcellus, UniProt P41144) (assay: Displacement of [3H]U69593 from kappa opioid receptor in guinea pig brain homogenate).
Assay type: tissue-based

Row | Structure (SMILES) | IC50
1 | COc1ccc(C[C@@H]2CN3C(=NC[C@@H]3C3CCCCC3)N2CC2CCC(C)CC2)cc1 (stereo partly specified) | 369 nM
2 | CC(C)C[C@@H]1CN2C(=NC[C@@H]2C2CCCCC2)N1CCC1CC2CCC1C2 (stereo partly specified) | 827 nM
3 | COc1ccc(C[C@H]2CN3C(=NC[C@H]3C3CCCCC3)N2CC2CCC(C)CC2)cc1 (stereo partly specified) | 804 nM
4 | COc1ccc(C[C@@H]2CN3C(=NC[C@@H]3C)N2C(C)C23CC4CC(CC(C4)C2)C3)cc1 (stereo partly specified) | 238 nM
5 | COc1ccc(C[C@H]2CN3C(=NC[C@@H]3C)N2CC2CCC(C)CC2)cc1 (stereo partly specified) | 1570 nM
6 | COc1ccc(C[C@@H]2CN3C(=NC[C@H]3C3CCCCC3)N2C(C)C23CC4CC(CC(C4)C2)C3)cc1 (stereo partly specified) | 341 nM
7 | CC1CCC(CN2C3=NC[C@@H](C4CCCCC4)N3C[C@@H]2C2CCCCC2)CC1 (stereo in doubt; 11) | 365 nM
8 | CC(C)C[C@@H]1CN2C(=NC[C@@H]2C)N1CC1CCC(C)CC1 (stereo partly specified) | 6480 nM
9 | CC(C)C[C@@H]1CN2C(=NC[C@H]2C2CCCCC2)N1CCC1CC2CCC1C2 (stereo partly specified) | 359 nM
10 | CC1CCC(CN2C3=NC[C@@H](C4CCCCC4)N3C[C@@H]2C2CCCCC2)CC1 (stereo in doubt; 24) | 1140 nM
11 | COc1ccc(C[C@@H]2CN3C(=NC[C@@H]3C)N2CCC2CC3CCC2C3)cc1 (stereo partly specified) | 85 nM
12 | COc1ccc(C[C@@H]2CN3C(=NC[C@@H]3C)N2CC2CCC(C)CC2)cc1 (stereo partly specified) | 425 nM
13 | C[C@H]1CN=C2N(CCC3CC4CCC3C4)[C@@H](C3CCCCC3)CN21 (stereo partly specified) | 4420 nM
14 | COc1ccc(C[C@H]2CN3C(=NC[C@@H]3C3CCCCC3)N2CC2CCC(C)CC2)cc1 (stereo partly specified) | 336 nM
15 | COc1ccc(C[C@H]2CN3C(=NC[C@@H]3C)N2CCC2CC3CCC2C3)cc1 (stereo partly specified) | 185 nM
16 | COc1ccc(C[C@@H]2CN3C(=NC[C@H]3C3CCCCC3)N2CC2CCC(C)CC2)cc1 (stereo partly specified) | 362 nM
